The results in this text go back to BindingDB's records for doi:10.1021/jm060777o (Abbott Laboratories, 2006).

Sequences of proteins named here, by UniProt entry; tags and fusion partners are left off.
UniProt P27487, whole entry: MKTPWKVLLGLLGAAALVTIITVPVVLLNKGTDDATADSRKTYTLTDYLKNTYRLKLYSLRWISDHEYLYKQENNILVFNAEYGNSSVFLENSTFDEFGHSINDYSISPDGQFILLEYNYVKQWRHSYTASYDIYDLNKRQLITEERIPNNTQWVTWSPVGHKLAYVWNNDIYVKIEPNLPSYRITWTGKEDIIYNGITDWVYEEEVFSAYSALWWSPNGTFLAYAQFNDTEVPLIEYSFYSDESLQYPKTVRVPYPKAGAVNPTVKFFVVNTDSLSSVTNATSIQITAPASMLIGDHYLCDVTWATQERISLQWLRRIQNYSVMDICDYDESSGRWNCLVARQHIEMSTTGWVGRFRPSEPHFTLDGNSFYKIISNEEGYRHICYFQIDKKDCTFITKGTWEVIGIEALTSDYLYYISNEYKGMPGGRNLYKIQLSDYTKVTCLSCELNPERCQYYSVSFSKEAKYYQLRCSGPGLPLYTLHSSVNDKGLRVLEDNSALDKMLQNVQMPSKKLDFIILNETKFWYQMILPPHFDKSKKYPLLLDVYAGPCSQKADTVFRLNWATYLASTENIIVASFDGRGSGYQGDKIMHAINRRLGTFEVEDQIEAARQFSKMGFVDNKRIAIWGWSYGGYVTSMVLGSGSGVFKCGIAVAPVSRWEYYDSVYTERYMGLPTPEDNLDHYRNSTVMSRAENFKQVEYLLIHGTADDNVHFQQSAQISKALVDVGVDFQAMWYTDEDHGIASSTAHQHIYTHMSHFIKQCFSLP

In this test the target is Dipeptidyl peptidase 4 (Homo sapiens, UniProt P27487).

For orientation: Ki means a dissociation constant, usually derived from enzyme kinetics or from competition with a known ligand. A higher Ki goes with a looser hold on the target. For `CCC(C)[C@@H](N)C(=O)N1[C@H](C#N)CC[C@H]1c1ccccc1` (stereo partly drawn) [(2S,5S)-1-[(2R,3R)-2-amino-3-methylpentanoyl]-5-phenylpyrrolidine-2-carbonitrile], the Ki is > 30 µM.
